This passage reports Ratio IC50 results from ChEMBL document CHEMBL4665801, “Pyrazole-Based Lactate Dehydrogenase Inhibitors with Optimized Cell Activity and Pharmacokinetic Properties” (J Med Chem, 2020).

Assay [1] can be described thus: Selectivity ratio of IC50 for inhibition of porcine heart MDH to IC50 for inhibition of recombinant human LDHA.
Assay [2] is described as follows: Selectivity ratio of IC50 for inhibition of porcine heart MDH to IC50 for inhibition of recombinant human LDHB.

Turning to `Cc1ncc(C#Cc2cc(-c3nn(-c4nc(C(=O)O)cs4)c(CC4CC4)c3Cc3ccc(S(N)(=O)=O)c(F)c3)ccc2F)s1`, the Ratio IC50 in assay [1] and in assay [2] was above 2500 in each case.
For the compound `NS(=O)(=O)c1ccc(Cc2c(-c3cccc(-c4ccccc4)c3)nn(-c3nc(C(=O)O)cs3)c2CC(F)(F)F)cc1`, the Ratio IC50 in assay [1] and in assay [2] was above 2500 throughout.
As to `NS(=O)(=O)c1ccc(Cc2c(-c3ccc(F)c(C#CCC4CCCC4)c3)nn(-c3nc(C(=O)O)cs3)c2CC2CC2)cc1F`, the Ratio IC50 in assay [1] and in assay [2] was above 2500 each time.
With `NS(=O)(=O)c1ccc(Cc2c(-c3ccc(F)c(C#CCN4CCOCC4)c3)nn(-c3nc(C(=O)O)cs3)c2CC2CC2)cc1F`, the Ratio IC50 in assay [1] and in assay [2] was above 2500 each time.
For `C#Cc1cc(-c2nn(-c3nc(C(=O)O)cs3)c(CC3CC3)c2Cc2ccc(S(N)(=O)=O)c(F)c2)ccc1F`, the Ratio IC50 in assay [1] and in assay [2] was above 2500 throughout.
Turning to `NS(=O)(=O)c1ccc(Cc2c(-c3cccc(C#Cc4ccc(C5CCC5)s4)c3)nn(-c3nc(C(=O)O)cs3)c2CCC2CC2)cc1F`, the Ratio IC50 in assay [1] and in assay [2] was above 2500 in each case.
For `Cc1ccsc1C#Cc1cccc(-c2nn(-c3nc(C(=O)O)cs3)c(CC3CC3)c2Cc2ccc(S(N)(=O)=O)c(F)c2)c1`, the Ratio IC50 in assay [1] and in assay [2] was above 2500 in each case.
On to `NS(=O)(=O)c1ccc(Cc2c(-c3ccc(F)c(C#CC4CC4)c3)nn(-c3nc(C(=O)O)cs3)c2CC2CC2)cc1F`, for which the Ratio IC50 in assay [1] and in assay [2] was above 2500 in each case.
In the case of `COCC#Cc1cc(-c2nn(-c3nc(C(=O)O)cs3)c(CC3CC3)c2Cc2ccc(S(N)(=O)=O)c(F)c2)ccc1F`, the Ratio IC50 in assay [1] and in assay [2] was above 2500 each time.
In the case of `Cn1cncc1C#Cc1cc(-c2nn(-c3nc(C(=O)O)cs3)c(CC3CC3)c2Cc2ccc(S(N)(=O)=O)c(F)c2)ccc1F`, the Ratio IC50 in assay [1] and in assay [2] was above 2500 in each case.
Turning to `CC(F)C#Cc1cc(-c2nn(-c3nc(C(=O)O)cs3)c(CC3CC3)c2Cc2ccc(S(N)(=O)=O)c(F)c2)ccc1F` (stereo not given), the Ratio IC50 in assay [1] and in assay [2] was above 2500 throughout.
In the case of `Cc1cnc(C#Cc2cc(-c3nn(-c4nc(C(=O)O)cs4)c(CC4CC4)c3Cc3ccc(S(N)(=O)=O)c(F)c3)ccc2F)s1`, the Ratio IC50 in assay [1] and in assay [2] was above 2500 in each case.
As to `NS(=O)(=O)c1ccc(Cc2c(-c3ccc(F)c(C#CCN4CCCC4)c3)nn(-c3nc(C(=O)O)cs3)c2CC2CC2)cc1F`, the Ratio IC50 in assay [1] and in assay [2] was above 2500 in each case.
With `NS(=O)(=O)c1ccc(Cc2c(-c3cccc(-c4ccccc4)c3)nn(-c3nc(C(=O)O)cs3)c2CC2CC2)c(F)c1`, the Ratio IC50 in assay [1] and in assay [2] was above 2500 each time.
For `CC(C)(C)c1ccc(C#Cc2cc(-c3nn(-c4nc(C(=O)O)cs4)c(CC4CC4)c3Cc3ccc(S(N)(=O)=O)c(F)c3)ccc2F)s1`, the Ratio IC50 in assay [1] and in assay [2] was above 2500 in each case.
As for `NS(=O)(=O)c1ccc(Cc2c(-c3ccc(F)c(C#CC4CCC4)c3)nn(-c3nc(C(=O)O)cs3)c2CC2CC2)cc1F`, the Ratio IC50 in assay [1] and in assay [2] was above 2500 in each case.
On to `CCC#Cc1cc(-c2nn(-c3nc(C(=O)O)cs3)c(CC3CC3)c2Cc2ccc(S(N)(=O)=O)c(F)c2)ccc1F`, for which the Ratio IC50 in assay [1] and in assay [2] was above 2500 each time.
Consider `N#CC#Cc1cc(-c2nn(-c3nc(C(=O)O)cs3)c(CC3CC3)c2Cc2ccc(S(N)(=O)=O)c(F)c2)ccc1F`, for which the Ratio IC50 in assay [1] and in assay [2] was above 2500 throughout.
For the compound `NS(=O)(=O)c1ccc(Cc2c(-c3cccc(C#Cc4ccc(C(F)F)s4)c3)nn(-c3nc(C(=O)O)cs3)c2CC2CC2)cc1F`, the Ratio IC50 in assay [1] and in assay [2] was above 2500 in each case.
In the case of `Cc1ccc(C#Cc2cccc(-c3nn(-c4nc(C(=O)O)cs4)c(CCC4CC4)c3Cc3ccc(S(N)(=O)=O)c(F)c3)c2)o1`, the Ratio IC50 in assay [1] and in assay [2] was above 2500 in each case.
